Assay: Animal model studies, summary (oral absorption, therapeutic index)
Details: summary statement

COc1ccc(CN2CCC(O)(CC(=O)c3ccccc3)CC2)cc1.Cl [III-15, N-p-methoxybenzyl-4-benzoylmethyl-4-piperidinol hydrochloride]
therapeutic index: high
